Test: Solubilization of benzophenone 3 by the ester
Assay type: physicochemical
Conditions: forming a clear solution even after 48 hours
Description: The compound Bis (PPG2, PEG10 Myristyl) adipate has a viscosity of 18,000 cps, a spread factor of 2.9 and can solubilize at least 20% by weight of benzophenone 3 forming a clear solution even after 48 hours.

Bis (PPG2, PEG10 Myristyl) adipate
can solubilize benzophenone 3: at least 20 % by weight
